Legend:
PSD-95 FL = target: T1, PSD-95 FL (Homo sapiens, UniProt P78352); test: Fluorescence polarization (FP) binding assay, full length PSD-95; conditions: read-out: Ki, PSD-95 FL, Table S1, CRIPT truncation study, mean ± SEM, n≥3
T1 construct: PSD-95 FL: 61-end; made in house; host or cells: E. coli (pET32m3C vector; construct donated by M. Zhang)

By UniProt entry, the sequences of proteins in these tests, tags left out. Residues count along the entry.
UniProt P78352, 61-724 limits assumed: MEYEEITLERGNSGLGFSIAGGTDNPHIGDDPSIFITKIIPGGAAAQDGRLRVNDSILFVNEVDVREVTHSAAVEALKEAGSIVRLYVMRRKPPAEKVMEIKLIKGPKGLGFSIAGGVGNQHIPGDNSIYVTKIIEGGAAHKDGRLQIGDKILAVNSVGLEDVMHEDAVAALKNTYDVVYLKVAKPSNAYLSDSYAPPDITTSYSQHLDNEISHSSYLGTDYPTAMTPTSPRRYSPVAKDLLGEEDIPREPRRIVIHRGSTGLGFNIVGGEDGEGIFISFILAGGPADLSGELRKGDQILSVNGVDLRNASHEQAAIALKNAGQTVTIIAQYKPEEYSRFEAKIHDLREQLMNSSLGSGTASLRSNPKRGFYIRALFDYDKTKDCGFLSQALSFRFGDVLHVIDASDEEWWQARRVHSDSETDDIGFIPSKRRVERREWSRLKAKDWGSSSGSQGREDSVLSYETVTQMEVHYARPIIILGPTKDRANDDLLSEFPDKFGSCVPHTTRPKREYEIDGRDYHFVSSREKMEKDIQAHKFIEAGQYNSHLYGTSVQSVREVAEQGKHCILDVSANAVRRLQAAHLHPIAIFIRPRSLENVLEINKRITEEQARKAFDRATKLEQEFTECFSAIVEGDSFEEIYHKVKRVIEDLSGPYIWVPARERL
UniProt P78352, 313-393 limits assumed: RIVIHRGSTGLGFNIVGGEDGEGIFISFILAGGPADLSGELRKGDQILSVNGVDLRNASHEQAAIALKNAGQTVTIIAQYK
UniProt P78352, 65-151: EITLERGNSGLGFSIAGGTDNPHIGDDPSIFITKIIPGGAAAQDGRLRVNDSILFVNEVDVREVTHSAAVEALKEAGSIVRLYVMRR
UniProt Q15700, 94-509: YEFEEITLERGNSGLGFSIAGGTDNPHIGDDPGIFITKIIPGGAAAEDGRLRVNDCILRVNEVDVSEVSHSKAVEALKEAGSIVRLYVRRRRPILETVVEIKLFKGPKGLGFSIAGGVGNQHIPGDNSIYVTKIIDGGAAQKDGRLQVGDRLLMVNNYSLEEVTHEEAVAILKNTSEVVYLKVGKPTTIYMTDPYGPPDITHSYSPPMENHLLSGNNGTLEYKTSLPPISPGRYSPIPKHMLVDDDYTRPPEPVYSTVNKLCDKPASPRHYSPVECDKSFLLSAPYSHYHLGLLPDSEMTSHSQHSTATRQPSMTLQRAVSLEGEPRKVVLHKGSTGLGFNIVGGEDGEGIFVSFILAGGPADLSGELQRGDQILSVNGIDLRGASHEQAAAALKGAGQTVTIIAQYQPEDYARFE
UniProt Q12959, 220-554: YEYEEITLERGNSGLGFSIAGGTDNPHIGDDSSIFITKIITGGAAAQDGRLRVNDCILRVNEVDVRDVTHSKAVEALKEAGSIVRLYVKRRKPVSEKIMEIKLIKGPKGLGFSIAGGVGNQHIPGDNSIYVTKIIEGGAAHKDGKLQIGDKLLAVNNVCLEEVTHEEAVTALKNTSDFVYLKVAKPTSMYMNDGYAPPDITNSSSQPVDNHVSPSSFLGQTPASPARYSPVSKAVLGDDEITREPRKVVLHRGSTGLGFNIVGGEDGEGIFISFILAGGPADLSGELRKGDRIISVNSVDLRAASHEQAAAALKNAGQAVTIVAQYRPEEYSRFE

PSD-95 PDZ3 = PSD-95 PDZ3 (Homo sapiens, UniProt P78352); conditions: read-out: Ki, PSD-95 PDZ3; Table S1, CRIPT truncation study; FP; mean ± SEM, n≥3
PSD-93 PDZ1-2-3 = target: T2, PSD-93 PDZ1-2-3 (Homo sapiens, UniProt Q15700); test: Fluorescence polarization (FP) binding assay, PSD-93 PDZ1-2-3; conditions: Table S4, mean ± SEM, n≥3
T2 construct: PSD93 PDZ1-2-3: 94- 509; 7xHis; made in house; host or cells: E. coli BL21(DE3)pLysS

SAP-97 PDZ1-2-3 = target: T3, SAP-97 PDZ1-2-3 (Homo sapiens, UniProt Q12959); test: Fluorescence polarization (FP) binding assay, SAP-97 PDZ1-2-3; conditions: Table S4, mean ± SEM, n≥3
T3 construct: SAP97 PDZ1-2-3: 220-554; 7xHis; made in house; host or cells: E. coli BL21(DE3)pLysS

SAP-102 PDZ1-2-3 = target: T4, SAP-102 PDZ1-2-3 (Homo sapiens, UniProt Q92796); test: Fluorescence polarization (FP) binding assay, SAP-102 PDZ1-2-3; conditions: Table S4, mean ± SEM, n≥3
T4 construct: SAP102 PDZ1-2-3: 127-475; 7xHis; made in house; host or cells: E. coli BL21(DE3)pLysS
T4 sequence (Q92796 127-475): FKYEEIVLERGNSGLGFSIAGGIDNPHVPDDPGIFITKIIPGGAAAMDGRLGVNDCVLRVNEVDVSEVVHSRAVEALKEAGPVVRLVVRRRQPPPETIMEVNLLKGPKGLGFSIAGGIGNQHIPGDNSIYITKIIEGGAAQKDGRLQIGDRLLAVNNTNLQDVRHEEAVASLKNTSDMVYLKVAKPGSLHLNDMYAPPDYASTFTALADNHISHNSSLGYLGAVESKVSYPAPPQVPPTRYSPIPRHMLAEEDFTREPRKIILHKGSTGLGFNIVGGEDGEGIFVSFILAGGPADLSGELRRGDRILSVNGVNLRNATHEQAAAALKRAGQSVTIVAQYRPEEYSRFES

PSD-95 PDZ1 = PSD-95 PDZ1 (Homo sapiens, UniProt P78352); conditions: read-out: Ki PDZ1; Table S2; monomeric GluN2B used as probe; mean ± SEM, n≥3
[1] = competition of the probe with the unlabeled probe
[2] = saturation binding of the probe

Substance | Ki (PSD-95 FL) [µM] | Ki (PSD-95 PDZ3) [µM] | further results
KNYKQTSV [CRIPT-08] | 2.1 ± 0.2 | 0.96 ± 0.5 | 
KQTSV [CRIPT-05] | 24 ± 4 | 8.2 ± 1 | 
LDTKNYKQTSV [CRIPT-11] | 4.6 ± 0.3 | 3 ± 0.6 | 
NYKQTSV [CRIPT-07] | 3.7 ± 0.3 | 4 ± 0.3 | 
TKNYKQTSV [CRIPT-09] | 3.1 ± 0.1 |  | 
YKQASA [Compound 9] |  | > 50 | 
YKQTSV [Compound 1] |  | 3.2 ± 1 | Ki (PSD-93 PDZ1-2-3; [1]): 0.93 ± 0.02 µM; Kd (PSD-93 PDZ1-2-3; [2]): 0.83 ± 0.02 µM; Ki (SAP-97 PDZ1-2-3; [1]): 1 ± 0.1 µM; Kd (SAP-97 PDZ1-2-3; [2]): 1.6 ± 0.1 µM; Ki (SAP-102 PDZ1-2-3; [1]): 0.26 ± 0.04 µM; Kd (SAP-102 PDZ1-2-3; [2]): 0.59 ± 0.05 µM; Ki (PSD-95 PDZ1): 86 ± 21 µM

Source: paper PMC4319893, “Targeting Protein-Protein Interactions with Trimeric Ligands: High Affinity Inhibitors of the MAGUK Protein Family” (PLoS ONE, 2015)
